The source of these data is ChEMBL document CHEMBL4390642, “The in vivo antinociceptive and μ-opioid receptor activating effects of the combination of N-phenyl-2',4'-dimethyl-4,5'-bi-1,3-thiazol-2-amines and naloxone” (Eur J Med Chem, 2019).

Sequences of proteins named here, by UniProt entry; tags and fusion partners are left off.
UniProt P35372, whole entry: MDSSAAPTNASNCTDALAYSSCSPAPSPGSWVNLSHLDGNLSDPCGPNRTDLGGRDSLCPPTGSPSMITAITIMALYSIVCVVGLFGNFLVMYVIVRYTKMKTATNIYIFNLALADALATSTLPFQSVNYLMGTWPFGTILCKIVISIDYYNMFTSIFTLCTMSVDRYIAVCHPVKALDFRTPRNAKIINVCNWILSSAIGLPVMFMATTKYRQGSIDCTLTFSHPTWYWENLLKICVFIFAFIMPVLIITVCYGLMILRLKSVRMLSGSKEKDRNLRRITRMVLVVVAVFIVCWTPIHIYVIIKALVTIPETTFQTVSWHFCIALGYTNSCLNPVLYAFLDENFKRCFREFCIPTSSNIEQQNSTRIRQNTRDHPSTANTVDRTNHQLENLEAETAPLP

The test concerns the target Mu-type opioid receptor (Homo sapiens, UniProt P35372). Put plainly: Agonist activity at human mu opioid receptor expressed in CHOK1 cells coexpressing Galpha15 assessed as intracellular calcium AUC in presence of mu opioid receptor antagonist naloxone and incubated for 1 hr measured for 90 secs at 1.5 sec interval by FLIPR assay to morphine. The format is functional, cell-based. The arrangement: concentration or dose not given beside the values. A general note: A change in cytosolic calcium serves as a functional read-out for many receptors and channels.

As for `CCc1ccccc1Nc1nc(-c2sc(C)nc2C)cs1`, the Activity amounted to 60.5%.
